According to BindingDB's records for doi:10.7270/Q24B305P (D3R/Abbott, 2015):

Biological target: Urokinase-type plasminogen activator [179-424,C299A,N323Q] (Human, UniProt P00749, C299A/N323Q)
Test: Photometric_Method1

Ki [µM] | SMILES
0.04 | [H]/N=C(\N)c1ccc2cc(C(=O)Nc3ccc(CN)cc3)ccc2c1
6.39 | [H]/N=C(\N)c1ccc2ccc(OC)c(OCCCBr)c2c1 [uPa_3]
